Measured values as given in US12233159B2, “Astaxanthin nanoemulsion and manufacturing method thereof” (priority 2021, dated 2025).

Test system: human foreskin fibroblast cells
Assay: Cell toxicity by MTT assay
Format: cell-based
Conditions: TPGS over 1 mg/mL, 24 hrs
Protocol: Cell toxicity of the TAP-nanoemulsion was determined by 3-(4,5-Dimethylthiazol-2-yl)-2,5-diphenyltetrazolium bromide (MTT) assay and the human foreskin fibroblast cells were used in this test. The cells were cultured with a density of 8×10^3 cells per well of a 96-well plate. After cultured for 1 day, cultured medium of the cells was replaced by fresh medium containing TPGS, peanut oil or the TAP-nanoemulsion. The cells were than incubated for another 24 hrs and cell viability was determined by MTT assay.

D-α-tocopherol polyethylene glycol succinate [TPGS]
cell viability: less than 10%
